According to PubChem BioAssay AID602141 (Sanford-Burnham Center for Chemical Genomics, 2011):
The list shows a part of the results, in another mix than the full data. Some results for these compounds are left out of this collection, so the calls shown say nothing about other tests. Activity calls are given as the source filed them.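 How the source made its calls: active means corrected activity change at or below -50% at 5 µM; inactive means the rest.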

experiment: KKLEB cell viability reduction – uHTS, fluorescence assay plates, cytotoxicity control for CF NF-kB inhibitor project, primary screen (AID 602141); conditions: KKLEB CF airway cells viability, ATPlite luminescence, overnight; at 5 µM; active compounds read low; cells stimulated with P. aeruginosa culture filtrate

| Compound | activity change (cytotoxicity) |
| --- | --- |
| O=C(NCC1(N2CCCCC2)CCCCC1)c1cc([N+](=O)[O-])ccc1Cl | inactive: 0.2% |
| CN1[C@@H]2CC[C@H]1CC(OC(=O)C(O)(c1ccccc1)c1ccccc1)C2 (stereo partly specified) | inactive: -2.2% |
| CC(C)N1C(=O)CC2(CCN(CCOC(=O)C(O)(c3ccccc3)c3ccccc3)CC2)C1=O | inactive: 8.1% |
| CCN(CC)CC(C)C(C)OC(=O)C(O)(c1ccccc1)c1ccccc1 (stereo unspecified) | inactive: 10.5% |
| COc1cc(SC)ccc1C(=O)NCC1(N(C)C)CCCCC1 | inactive: 22.4% |
| Cc1ccc(C(=O)NCC2(N3CCCCC3)CCCCC2)cc1 | inactive: -1.6% |
| Cc1ccccc1C(=O)NCC1(N2CCCCC2)CCCCC1 | inactive: -4.8% |
| CN(C)C1CCCC1OC(=O)C(O)(c1ccccc1)c1ccccc1 (stereo unspecified) | inactive: 14.5% |
| CN(C)c1ccc(C(=O)NCC2(N(C)C)CCCCC2)cc1 | inactive: -11.3% |
| C=CCN1CCN(CCOC(=O)C(O)(c2ccccc2)c2ccccc2)CC1 | inactive: -8.8% |
| O=C(NCC1(N2CCCCC2)CCCCC1)c1cc(F)c(F)cc1Cl | inactive: -7.1% |
| Cc1cc(C(=O)NCC2(N3CCCCC3)CCCCC2)ccc1[N+](=O)[O-] | inactive: -1.9% |
| CCN1CCCC(OC(=O)C2(O)c3ccccc3C=Cc3ccccc32)C1 (stereo unspecified) | inactive: -1.4% |
| O=C(NCC1(N2CCCCC2)CCCCC1)c1cccc(Br)c1 | inactive: 5% |
| COc1ccc(C(=O)NCC2(N(C)C)CCCCC2)cc1 | inactive: 7.9% |
| CN(C)C1(CNC(=O)c2ccc(Br)cc2)CCCCC1 | inactive: -0.3% |
| COc1cc(C(=O)NCC2(N(C)C)CCCCC2)c([N+](=O)[O-])cc1OC | inactive: -5.4% |
| COc1cccc(C(=O)NCC2(N3CCCCC3)CCCCC2)c1 | inactive: 19.9% |
| COc1ccc(Cl)cc1C(=O)NCC1(N(C)C)CCCCC1 | inactive: -0.9% |
| O=C(NCC1(N2CCCCC2)CCCCC1)c1cccc(Cl)c1 | inactive: 5.8% |
| O=C(OC1CN2CCC1CC2)C(CO)(c1ccccc1)c1ccccc1 (stereo unspecified) | inactive: -0.8% |
| COc1ccc(Br)c(C(=O)NCC2(N3CCCCC3)CCCCC2)c1 | inactive: 2.7% |
| C=C(C)C#CC(O)(C(=O)OC1CCN(C)CC1)c1ccccc1 (stereo unspecified) | inactive: 5.7% |
| CN(C)c1cccc(C(=O)NCC2(N(C)C)CCCCC2)c1 | inactive: 4.7% |
| CC(C)Oc1ccc(C(=O)NCC2(N(C)C)CCCCC2)cc1 | inactive: 10.6% |
| O=C(OCCN1CCCC1)C(O)(c1ccccc1)c1ccccc1 | inactive: -11.8% |
